# Laboratory results taken from patent publication US12636370B2, “Combination therapy for treatment of cancer” (Institute For Cancer Research, priority 2019, dated 2026).
# Amino acid sequences for entries named in this document (tags omitted).
# UniProt P50750, whole entry: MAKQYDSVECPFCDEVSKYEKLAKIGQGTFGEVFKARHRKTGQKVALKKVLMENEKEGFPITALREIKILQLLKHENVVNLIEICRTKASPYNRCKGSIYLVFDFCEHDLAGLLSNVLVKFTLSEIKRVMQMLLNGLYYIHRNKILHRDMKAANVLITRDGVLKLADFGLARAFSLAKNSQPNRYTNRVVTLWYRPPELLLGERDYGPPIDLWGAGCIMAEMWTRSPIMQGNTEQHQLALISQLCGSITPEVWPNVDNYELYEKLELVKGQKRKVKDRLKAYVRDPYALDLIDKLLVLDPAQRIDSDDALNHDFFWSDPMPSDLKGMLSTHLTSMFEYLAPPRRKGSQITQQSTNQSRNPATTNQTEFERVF
# Legend:
# Format in all cases: cell-based
# OVCAR8 MZ1-R cells = experiment: CellTiter-Glo cell viability, OVCAR8 MZ1-R cells; settings: OVCAR8, inhibitor screen, escalating doses, 5 days
# CDK9 = CDK9 (Homo sapiens, UniProt P50750); experiment: Western blot of CDK9 protein levels, OVCAR8 Thal-R cells; settings: Thal 500 nM or 2 μM kinase inhibitor, 4 hours
# OVCAR8 Thal-R cells = experiment: CellTiter-Glo cell viability, OVCAR8 Thal-R cells; settings: OVCAR8, escalating doses, 5 days
# Experimental: Chronic exposure of OVCAR8 cells to CDK9 PROTAC (Thal SNS 032) sensitized cells to RAD001 or GSK1904529A. […] Moreover, these studies show both BET PROTACs and CDK9 PROTACs elicit a similar dependency on MTOR signaling to promote drug resistance. […] OVCAR8 Thal-R cells were treated with Thal (500 nM) or (2 μM) GSK529A, lapatinib, or RAD001 for 4 hours and protein levels were assessed by Western blot. (FIG. 15B). […] Parental or Thal-R OVCAR8 cells were treated with escalating doses of GSK1904529A (FIG. 15C), lapatinib (FIG. 15D), or RAD001 (FIG. 15E) for 5 days and cell viability was assessed by CellTiter-Glo. Thal-R inhibitor treated cell viabilities were normalized to DMSO treated Thal-R cells. Combination therapies involving GSK529A or RAD001 and Thal SNS 032 improved growth repression of OVCAR8 cells. OVCAR8 cells were treated with 100 nM Thal SNS 032, escalating doses of GSK529A or RAD001, or the combination of Thal SNS 032 and kinase inhibitors, for 5 days and cell viability was assessed by CellTiter-Glo (FIGS. 15F and 15G).
structure (smiles),measurement,setting,value
CS(=O)(=O)CCNCc1ccc(-c2ccc3ncnc(Nc4ccc(OCc5cccc(F)c5)c(Cl)c4)c3c2)o1 [lapatinib],sensitivity of MZ1-R cells relative to JQ1-R cells or parental cells,OVCAR8 MZ1-R cells,more sensitive
same,CDK9 protein levels,CDK9,"overcome by GSK529A, lapatinib or RAD001 treatment"
same,sensitivity of Thal-R cells relative to parental cells,OVCAR8 Thal-R cells,more sensitive
